Only a part is listed here, and it is no random draw. Some results for these compounds are left out of this collection, so the calls shown say nothing about other tests. Calls of active or inactive are those of the source.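 How the source made its calls: active means mean replicate percent of control at or below 100 minus about 85%, very high polarization wells dropped (limit read from the data); inactive means the rest.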
molecular target: Guanine nucleotide-binding protein G(i) subunit alpha-3 (Rattus norvegicus) (UniProt P08753); assay: disruptors of GIV-Galphai3 protein-protein interaction – biochemical, fluorescence polarization, FITC-GIV GBA peptide, rat Galphai3, primary screen (AID 1224905); settings: Galpha-i3/FITC-GIV peptide fluorescence polarization, 90 min; active compounds read low; scaled: aluminum fluoride 0%, vehicle 100%;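 further: lower values mean more displacement of the GIV peptide from Galpha-i3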

By UniProt entry, the sequences of proteins in these tests, tags left out.
UniProt P08753, whole entry: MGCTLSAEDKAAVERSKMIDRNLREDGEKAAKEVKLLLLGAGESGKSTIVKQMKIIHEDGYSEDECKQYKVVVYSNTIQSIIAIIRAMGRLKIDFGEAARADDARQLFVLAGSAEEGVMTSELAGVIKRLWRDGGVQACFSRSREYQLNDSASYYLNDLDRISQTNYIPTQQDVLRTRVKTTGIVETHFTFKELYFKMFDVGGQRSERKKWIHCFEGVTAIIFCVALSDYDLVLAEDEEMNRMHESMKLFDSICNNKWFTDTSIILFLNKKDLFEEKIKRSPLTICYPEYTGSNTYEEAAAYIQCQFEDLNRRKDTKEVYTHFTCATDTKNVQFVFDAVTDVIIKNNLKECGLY
UniProt Q3V6T2, whole entry partner: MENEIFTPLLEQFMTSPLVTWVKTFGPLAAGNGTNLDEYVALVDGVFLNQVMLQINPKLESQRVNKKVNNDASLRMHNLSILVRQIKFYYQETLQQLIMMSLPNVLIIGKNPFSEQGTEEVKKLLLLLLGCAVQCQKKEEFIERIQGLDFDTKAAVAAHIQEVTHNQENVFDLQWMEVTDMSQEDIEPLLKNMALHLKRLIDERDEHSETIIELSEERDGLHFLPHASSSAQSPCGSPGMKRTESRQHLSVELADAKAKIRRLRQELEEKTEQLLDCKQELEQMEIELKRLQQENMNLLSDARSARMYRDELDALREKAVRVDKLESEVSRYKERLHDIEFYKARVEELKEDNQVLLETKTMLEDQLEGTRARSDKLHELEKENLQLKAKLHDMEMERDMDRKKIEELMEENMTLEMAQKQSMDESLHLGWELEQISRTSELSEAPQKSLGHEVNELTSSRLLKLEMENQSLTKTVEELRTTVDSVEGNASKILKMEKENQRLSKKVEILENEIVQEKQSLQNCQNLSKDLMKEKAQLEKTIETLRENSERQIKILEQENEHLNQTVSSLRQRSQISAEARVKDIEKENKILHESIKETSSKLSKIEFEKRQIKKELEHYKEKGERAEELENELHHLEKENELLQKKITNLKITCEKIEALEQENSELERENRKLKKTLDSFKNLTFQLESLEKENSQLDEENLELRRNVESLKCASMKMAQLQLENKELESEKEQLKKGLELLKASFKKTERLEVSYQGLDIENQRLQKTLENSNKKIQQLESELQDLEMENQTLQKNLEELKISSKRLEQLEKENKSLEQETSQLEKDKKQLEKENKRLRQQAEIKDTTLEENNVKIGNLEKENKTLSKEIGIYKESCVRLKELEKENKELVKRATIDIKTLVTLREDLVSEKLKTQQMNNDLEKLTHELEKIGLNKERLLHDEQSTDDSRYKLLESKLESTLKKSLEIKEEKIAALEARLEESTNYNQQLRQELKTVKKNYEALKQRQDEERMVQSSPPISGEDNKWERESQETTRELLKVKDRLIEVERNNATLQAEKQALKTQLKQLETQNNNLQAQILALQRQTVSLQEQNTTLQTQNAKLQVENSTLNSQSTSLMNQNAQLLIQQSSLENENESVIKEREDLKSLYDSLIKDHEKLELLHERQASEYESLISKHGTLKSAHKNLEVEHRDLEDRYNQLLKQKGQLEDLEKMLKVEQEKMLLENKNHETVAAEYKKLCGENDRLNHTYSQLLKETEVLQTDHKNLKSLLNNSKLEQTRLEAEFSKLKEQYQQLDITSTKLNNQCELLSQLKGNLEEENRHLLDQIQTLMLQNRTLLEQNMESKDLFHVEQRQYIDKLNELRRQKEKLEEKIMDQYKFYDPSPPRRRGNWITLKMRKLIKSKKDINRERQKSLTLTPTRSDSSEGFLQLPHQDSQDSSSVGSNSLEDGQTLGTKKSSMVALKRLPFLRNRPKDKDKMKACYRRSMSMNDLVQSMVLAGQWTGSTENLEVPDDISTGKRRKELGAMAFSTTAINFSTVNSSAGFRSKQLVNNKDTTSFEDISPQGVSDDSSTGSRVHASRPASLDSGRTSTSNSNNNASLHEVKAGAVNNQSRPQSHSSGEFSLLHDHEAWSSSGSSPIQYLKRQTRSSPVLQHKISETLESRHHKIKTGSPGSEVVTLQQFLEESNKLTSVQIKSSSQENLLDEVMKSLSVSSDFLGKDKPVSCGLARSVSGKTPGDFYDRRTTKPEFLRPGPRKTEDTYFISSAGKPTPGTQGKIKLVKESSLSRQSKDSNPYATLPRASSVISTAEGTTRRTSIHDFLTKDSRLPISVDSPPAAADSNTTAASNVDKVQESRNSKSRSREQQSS

| Compound | percent of control (FP) |
| --- | --- |
| CN(C)C1(CNC(=O)c2ccccc2[N+](=O)[O-])CCCCC1 | inactive: 99.4% |
| Cc1cc(C)c2c(C)c(C(=O)NCC3(N(C)C)CCCCC3)oc2c1 | inactive: 107% |
| CCCCOc1ccccc1C(=O)NCC1(N(C)C)CCCCC1 | inactive: 102% |
| COc1ccc(OC)c(C=C(C#N)C#N)c1 | inactive: 88.8% |
| Cc1c(C(=O)NCC2(N(C)C)CCCCC2)oc2ccccc12 | inactive: 104% |
| CCOc1cccc(C(=O)NCC2(N(C)C)CCCCC2)c1 | inactive: 100% |
| Cc1cc2oc(C(=O)NCC3(N(C)C)CCCCC3)c(C)c2cc1Cl | inactive: 103% |
| Cc1ccc2oc(C(=O)NCC3(N(C)C)CCCCC3)c(C)c2c1 | inactive: 105% |
| CN(C)C1(CNC(=O)c2cccc(Cl)c2)CCCCC1 | inactive: 103% |
| CN(C)C1(CNC(=O)c2ccccc2F)CCCCC1 | inactive: 101% |
| COc1cccc(C(=O)NCC2(N3CCOCC3)CCCCC2)c1 | inactive: 103% |
| CC(C)COc1ccc(C(=O)NCC2(N(C)C)CCCCC2)cc1 | inactive: 102% |
| Cc1ccc2c(Cl)c(C(=O)NCC3(N(C)C)CCCCC3)sc2c1 | inactive: 107% |
| COc1cc(C(=O)NCC2(N(C)C)CCCCC2)cc(OC)c1OC | inactive: 103% |
| Cc1cccc(C(=O)NCC2(N(C)C)CCCCC2)c1 | inactive: 105% |
| CN1C2CCC1CC(OC(=O)C(O)(c1ccccc1)c1ccccc1)C2 (stereo not given) | inactive: 98.8% |
| CC(C)Oc1ccc(C(=O)NCC2(N(C)C)CCCCC2)cc1 | inactive: 101% |
| Cc1c(C(=O)NCC2(N(C)C)CCCCC2)oc2ccc(F)cc12 | inactive: 105% |
| COc1ccc(C(=O)NCC2(N(C)C)CCCCC2)cc1Cl | inactive: 99.9% |
| Cc1ccc2c(C)c(C(=O)NCC3(N(C)C)CCCCC3)oc2c1 | inactive: 107% |
